From patent US20220184072A1 (priority 2019, published 2022)

Target: mu-opiate receptors (Mus musculus, UniProt P42866)
Assay: Mouse tail flick: analgesia after 14-day chronic administration
Settings: acute Vehicle

SMILES: O=C1CN2c3c(cccc3[C@@H]3CN(CCCc4noc5cc(F)ccc45)CC[C@@H]32)N1
- Latency ((B) chronic Ex. 3 0.3 mg/kg): 0.893 s
- Latency ((C) chronic Ex. 3 3.0 mg/kg): 1.04 s
